Data from US9101562B2, “Additives for chlorine dioxide-containing compositions” (BASF CORPORATION, priority 2010, dated 2015).

Experiment: Chlorine dioxide compatibility: ClO2 decrease in 200 ppm ClO2 test samples containing an additive (UV/Vis absorption or titration)
Assay type: physicochemical
Details: Table 3; 200 ppm ClO2 test sample, single additive at listed wt. %; interpolated to 8 hours

OCCN(CCO)CCO
ClO2 decrease @ 8 hrs: 96%
